Assay results published in patent US8940728B2 (priority 2012, dated 2015).

Amino acid sequences for entries named in this document (tags omitted). Residues count along the entry.
UniProt P30926, 22-498: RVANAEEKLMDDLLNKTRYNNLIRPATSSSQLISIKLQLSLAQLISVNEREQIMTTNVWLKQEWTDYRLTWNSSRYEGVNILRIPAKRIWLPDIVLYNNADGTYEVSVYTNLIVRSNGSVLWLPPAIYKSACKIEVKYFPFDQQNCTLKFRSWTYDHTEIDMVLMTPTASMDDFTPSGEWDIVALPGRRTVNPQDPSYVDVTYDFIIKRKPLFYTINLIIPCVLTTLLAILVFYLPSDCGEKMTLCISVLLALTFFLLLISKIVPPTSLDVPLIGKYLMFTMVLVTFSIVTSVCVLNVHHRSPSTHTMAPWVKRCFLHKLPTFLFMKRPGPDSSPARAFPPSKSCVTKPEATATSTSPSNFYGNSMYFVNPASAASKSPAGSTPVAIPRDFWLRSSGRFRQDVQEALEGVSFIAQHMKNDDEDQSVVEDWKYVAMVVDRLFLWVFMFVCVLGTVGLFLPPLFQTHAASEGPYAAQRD
UniProt P32297, 32-505: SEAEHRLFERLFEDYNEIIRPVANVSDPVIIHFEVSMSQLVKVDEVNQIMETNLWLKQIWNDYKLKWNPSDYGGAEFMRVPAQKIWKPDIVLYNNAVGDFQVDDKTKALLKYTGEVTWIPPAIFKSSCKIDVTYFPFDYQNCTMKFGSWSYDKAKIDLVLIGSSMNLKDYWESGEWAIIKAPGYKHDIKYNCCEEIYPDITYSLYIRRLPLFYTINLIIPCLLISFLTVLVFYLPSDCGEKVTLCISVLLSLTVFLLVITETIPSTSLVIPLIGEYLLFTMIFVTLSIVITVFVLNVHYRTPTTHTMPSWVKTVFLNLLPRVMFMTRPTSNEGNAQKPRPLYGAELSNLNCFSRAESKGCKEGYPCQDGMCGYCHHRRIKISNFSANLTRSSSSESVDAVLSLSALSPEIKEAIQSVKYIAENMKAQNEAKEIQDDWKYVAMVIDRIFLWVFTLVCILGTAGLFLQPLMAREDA

Legend:
a3b4 nAChRs [1] = target: T1, a3b4 nAChRs (Homo sapiens, UniProt P30926+P32297); test: FLIPR Ca+2 flux assay, epibatidine-induced calcium response, SH-SYSY cells; assay type: cell-based
Procedure: (§1) The HEK293 (a3b4, a4b2 and a7) and SH-SYSY cell lines (a3b4) expressing nAChRs are used. Validated assays optimized with respect to sensitivity, dynamic range, signal intensity and stability for chemical probe validation and SAR refinement are used.
(§2) Nicotinic functional assays are performed using the Molecular Devices FLIPR® Calcium 5 Assay Kit. HEK293 cells overexpressing α3β4, α4β2 or α7 (50,000 cells per well in 100 μl growth media) and are plated in clear bottom black walled 96-well microplates and incubated for 24-48 hours at 37° C., 5% CO2 until a 80-90% confluent monolayer is formed. On the day of the assay, 100 μl of Calcium 5 Dye is added to each well. Following addition of dye, cells are incubated at 25° C. for 60 minutes. Following dye loading, 50 μl of a 5× solution of reference or test compound of appropriate concentration range (0.01-30 μM), prepared in 20 mM HEPES pH 7.4 in HBSS, is added to each well. Plates are then transferred to the Molecular Devices Flexstation® which transfers 50 μL of a 5× solution (500 nM) of epibatine to each well to initiate the Ca+2 flux. […] The RFU (relative fluorescence units) in the presence of the test or reference compounds is then expressed on the percent scale. The percent inhibition of epibatidine induced Ca^+2 flux is calculated as follows: % inhibition=100%−% RFU (relative fluorescence units). […]

a3b4 nAChRs [2] = target: T1, a3b4 nAChRs; test: FLIPR Ca+2 flux assay, epibatidine-induced calcium response, A3B4-HEK cells; assay type: cell-based
Procedure: as §1, §2

[3] = target: T2, α3β4 nicotinic receptor subtype (Homo sapiens, UniProt P30926+P32297); test: cell-based; settings: IC50 (uM) Caliper, inhibition of epibatidine-induced calcium response
T2 construct: SH-SYSY cells predominantly express the α3β4 nicotinic receptor subtype; endogenous in cells; host or cells: SH-SYSY (SH-SY5Y) cells
Description: as §1

`CNC1(C)C2CCC(C2)C1(C)C` (stereo not drawn) [Mecamylamine] gave an IC50 (a3b4 nAChRs [1]) of 400 nM, an IC50 (a3b4 nAChRs [2]) of 1600 nM and an IC50 [3] of 0.3 µM.
